Values of other authors in US20030170176A1, “Individualization of therapy with antipsychotics” (McGill University, priority 2001, published 2003).

Settings: CYP2D6 extensive metabolizers; cited from earlier work

SMILES: Cc1nc2n(c(=O)c1CCN1CCC(c3noc4cc(F)ccc34)CC1)CCCC2 [risperidone]
- individuals suffering from side effects: 35%
